Data: BindingDB's records for patent US9096601 (Cspc Zhongqi Pharmaceutical Technology (Shijiazhuang), 2015)
Values joined by “and” are separate entries in the source; they are usually repeats but may differ in a detail not shown here. Equal values may be shown once.

Amino acid sequences for entries named in this document (tags omitted). Residues count along the entry.
UniProt P00533, 25-1210 T790M/L858R limits assumed: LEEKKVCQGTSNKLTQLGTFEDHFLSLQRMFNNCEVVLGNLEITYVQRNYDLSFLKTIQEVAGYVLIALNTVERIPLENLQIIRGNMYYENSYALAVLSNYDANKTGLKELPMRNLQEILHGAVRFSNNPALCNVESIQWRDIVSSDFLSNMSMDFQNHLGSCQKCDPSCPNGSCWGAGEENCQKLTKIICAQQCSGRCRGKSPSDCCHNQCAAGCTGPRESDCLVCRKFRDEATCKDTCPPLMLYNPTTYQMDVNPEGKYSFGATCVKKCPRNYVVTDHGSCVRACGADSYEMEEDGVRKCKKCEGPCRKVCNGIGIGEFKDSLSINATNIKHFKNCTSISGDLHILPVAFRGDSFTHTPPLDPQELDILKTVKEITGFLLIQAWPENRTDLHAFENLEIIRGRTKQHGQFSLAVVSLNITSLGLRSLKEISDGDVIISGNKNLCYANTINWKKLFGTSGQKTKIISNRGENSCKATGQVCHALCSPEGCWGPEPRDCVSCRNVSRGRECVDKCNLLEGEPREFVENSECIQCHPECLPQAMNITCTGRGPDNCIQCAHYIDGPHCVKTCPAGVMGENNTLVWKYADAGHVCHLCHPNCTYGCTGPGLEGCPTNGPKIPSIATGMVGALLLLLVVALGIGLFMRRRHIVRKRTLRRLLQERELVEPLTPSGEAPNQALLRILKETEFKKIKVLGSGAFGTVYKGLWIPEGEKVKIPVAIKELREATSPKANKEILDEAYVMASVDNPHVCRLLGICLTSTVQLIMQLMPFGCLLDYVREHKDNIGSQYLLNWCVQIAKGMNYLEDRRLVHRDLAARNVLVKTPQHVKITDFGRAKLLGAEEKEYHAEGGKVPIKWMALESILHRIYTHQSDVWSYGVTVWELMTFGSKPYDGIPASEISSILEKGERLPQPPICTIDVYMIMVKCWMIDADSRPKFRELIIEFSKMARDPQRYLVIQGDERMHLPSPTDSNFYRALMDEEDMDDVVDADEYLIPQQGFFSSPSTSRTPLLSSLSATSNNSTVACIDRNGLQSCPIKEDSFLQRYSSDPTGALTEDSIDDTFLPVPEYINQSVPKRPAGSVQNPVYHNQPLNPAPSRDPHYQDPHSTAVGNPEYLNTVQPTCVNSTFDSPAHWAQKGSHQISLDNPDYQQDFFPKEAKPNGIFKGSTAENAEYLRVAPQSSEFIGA

Biological target: Epidermal growth factor receptor [T790M,L858R] (Homo sapiens, UniProt P00533, L858R/T790M)
Assay: Inhibition Assay
Description: The object of this assay was to test the inventive compounds for the kinase inhibitory activity in vitro. […] Staurosporine was used as a reference molecule (or referred to as a positive control). […] The IC50 value can be obtained by the calculation of the inhibitory rates at a series of different concentrations of the tested compounds. 1.

IC50: 0.046 µM and 0.018 µM
SMILES: CC(C)n1c(Nc2ccccc2)nc2cnc(Nc3ccc(C(=O)NN4CCN(C)CC4)cc3F)nc21 [US9096601,8-6]
